Protein sequences, listed by entry. Tags and fused reporters are not part of them.
UniProt P37288, whole entry: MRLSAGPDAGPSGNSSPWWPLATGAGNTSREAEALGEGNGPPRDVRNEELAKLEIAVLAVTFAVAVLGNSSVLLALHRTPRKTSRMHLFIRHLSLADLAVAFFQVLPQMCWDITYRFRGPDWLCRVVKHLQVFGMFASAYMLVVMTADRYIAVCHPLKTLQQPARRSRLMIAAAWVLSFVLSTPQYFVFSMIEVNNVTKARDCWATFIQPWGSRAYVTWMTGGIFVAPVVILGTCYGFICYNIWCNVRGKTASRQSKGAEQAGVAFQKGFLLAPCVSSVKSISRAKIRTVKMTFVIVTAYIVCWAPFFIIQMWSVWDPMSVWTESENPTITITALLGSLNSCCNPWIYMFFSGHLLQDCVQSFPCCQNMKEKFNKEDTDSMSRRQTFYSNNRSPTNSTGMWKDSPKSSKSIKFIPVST

According to US7332501B2, “Indol-3-yl-carbonyl-spiro-piperidine derivatives as V1a receptor antagonists” (Hoffmann-La Roche Inc., priority 2005, dated 2008):

Target: human V1a receptor (Homo sapiens, UniProt P37288)
Assay: human V1a receptor binding (3H-Vasopressin SPA, HEK293 membranes)
Conditions: displacement of 4 nM 3H-Vasopressin, membranes of HEK293 cells transiently transfected with human V1a receptor; Ki from IC50 by Cheng-Prussoff

## O=C(c1c[nH]c2cc(Cl)ccc12)N1CCC2(CC1)COc1ccccc12
  Ki: 0.0158 µM
